This assay deals with Adenosine receptor A1 (Cavia porcellus, UniProt P47745). Kind of assay: Binding affinity against Adenosine A1 receptor from guinea pig forebrain membranes by N6-[3H]- cyclohexyladenosine displacement.

Protein sequences, listed by entry. Tags and fused reporters are not part of them.
UniProt P47745, whole entry: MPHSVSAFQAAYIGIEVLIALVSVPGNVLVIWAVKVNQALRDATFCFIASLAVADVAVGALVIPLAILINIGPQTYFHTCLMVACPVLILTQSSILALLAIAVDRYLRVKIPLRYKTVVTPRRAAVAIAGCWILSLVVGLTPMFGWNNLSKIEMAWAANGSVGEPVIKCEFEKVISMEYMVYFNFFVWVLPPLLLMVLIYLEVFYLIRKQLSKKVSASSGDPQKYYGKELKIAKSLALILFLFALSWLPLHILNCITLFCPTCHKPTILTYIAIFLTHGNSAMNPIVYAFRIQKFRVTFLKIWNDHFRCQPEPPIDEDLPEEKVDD

A word on the Ki: it is a dissociation constant, usually derived from enzyme kinetics or from competition with a known ligand. In turn, `CCCn1c(=O)c2nc(C34CC5CC(CC3C5)C4)[nH]c2n(CCc2ccc(N)cc2)c1=O` returned an inhibition constant Ki of 2.4 nM.

These data come from ChEMBL document CHEMBL1126778, “Adenosine A1 antagonists. 3. Structure-activity relationships on amelioration against scopolamine- or N6-((R)-phenylisopropyl)adenosine-induced cognitive disturbance” (J Med Chem, 1993).
